## Antibody variant affinities, Ab-14 light chain, assay 1

Source: Engelhart et al. 2022 (doi:10.1038/s41597-022-01779-4), MIT Lincoln Laboratory and A-Alpha Bio; data file from the FLAb repository.

Target: peptide PDVDLGDISGINAS, taken from heptad repeat 2 (HR2) of SARS-CoV-2 spike.

Ab-14 is the parent antibody, in scFv form: VH, then a (GGGGS)3 linker, then VL. The heavy chain is unchanged in all variants.
VH: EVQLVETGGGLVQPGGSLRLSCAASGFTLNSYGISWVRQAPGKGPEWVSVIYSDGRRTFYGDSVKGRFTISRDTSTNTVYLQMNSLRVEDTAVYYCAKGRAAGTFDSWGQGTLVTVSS
VL: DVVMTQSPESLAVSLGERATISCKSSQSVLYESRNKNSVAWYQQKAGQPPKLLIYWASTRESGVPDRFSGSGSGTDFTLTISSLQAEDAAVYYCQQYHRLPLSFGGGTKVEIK

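The library (AAYL50) carries one to three amino acid substitutions per variant, with no insertions or deletions. In AlphaSeq, yeast of one mating type display the scFv and yeast of the other type display the target. Binding brings cells together so that they mate, and sequencing counts the barcode pairs among the diploids. Read counts were normalised to the haploid input and turned into Kd by a linear fit to BCL2-family pairs of known affinity, for each replicate. There are three technical replicates.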

Positions count from residue 1 of the parent VL; V29I puts I in place of V. This list gathers variants with a substitution at V29 (VL, numbered from residue 1). The read-out is the apparent dissociation constant on a log10 scale (nM): the lower, the stronger. Replicates are averaged; those with no signal do not enter the mean. A pair that was not seen in any replicate is written "not detected"; this usually means weak binding, but a binder can also be missed. Parent in this assay: reference entry 0.65, copy in this library 1.68. Background: pairings of library AAYL50 with three empty control strains gave a value in 18% of cases (median 4.19, 5th percentile 2.99). Values in that range, when seen in few replicates, are hard to tell from nonspecific mating. The control count says in how many pairings with the empty strains this scFv gave a signal.

changes,"mean, log10 nM",detected,empty controls
V29I/N35Y,1.21,3 of 3,2 of 9
V29S,1.40,3 of 3,1 of 9
V29D/V39K/R99V,not detected,0 of 3,0 of 9
V29C/S62A/L100K,2.96,2 of 3,0 of 9
K24H/V29Y,1.85,3 of 3,1 of 9
V29C/E32K/N37C,not detected,0 of 3,0 of 9
V29N/R60V/L102E,not detected,0 of 3,3 of 9
V29R/R60H/P101M,not detected,0 of 3,1 of 9
V29Y/Q96Y/Y97V,not detected,0 of 3,0 of 9
V29G/W56I/H98K,4.56,3 of 3,8 of 9
V29A/A40V/S62G,3.92,2 of 3,4 of 9
V29Y/T59W/H98T,3.25,3 of 3,3 of 9
V29Y/S58D/L100T,not detected,0 of 3,0 of 9
V29G/R99I/L100M,2.16,3 of 3,4 of 9
S25T/V29P/R99E,0.91,3 of 3,1 of 9
V29R/R60D/S103D,2.54,3 of 3,5 of 9
V29I/R34G/P101H,0.45,3 of 3,2 of 9
V29A/A57C,2.46,2 of 3,1 of 9
V29W/Q95W/R99C,0.83,3 of 3,3 of 9
V29E/K36L/L100A,1.71,3 of 3,2 of 9
V29A/Q95A/L102F,2.38,2 of 3,0 of 9
V29W/R34E/S38L,3.26,3 of 3,0 of 9
V29H/Y31P/Q95D,2.22,3 of 3,1 of 9
V29M/S33E,0.45,3 of 3,1 of 9
S25P/V29M/S33K,3.22,3 of 3,0 of 9
V29D/S33Y/A40L,3.90,2 of 3,4 of 9
K24T/V29T/Q96P,not detected,0 of 3,3 of 9
V29A/K36F/V39S,not detected,0 of 3,4 of 9
V29I/Y31R,1.73,3 of 3,3 of 9
V29Y/S38F/P101W,4.56,1 of 3,1 of 9
K24M/Q27K/V29Y,2.21,3 of 3,3 of 9
V29K/K36I/A57E,2.17,1 of 3,0 of 9
S25L/V29L/Q95K,0.18,3 of 3,0 of 9
V29A/N37M/Q95V,not detected,0 of 3,0 of 9
V29D/E61G/S62F,1.59,3 of 3,5 of 9
V29C/L30D/Q96W,1.05,3 of 3,1 of 9
V29L/A57D/S62E,0.69,3 of 3,1 of 9
V29Y/L100C/S103R,not detected,0 of 3,0 of 9
S26Y/V29Q/E32W,1.68,3 of 3,4 of 9
V29K/N35W/T59E,3.86,1 of 3,0 of 9
V29F/N35A/N37V,2.25,2 of 3,1 of 9
V29C/R34Q/P101I,0.78,3 of 3,0 of 9
V29G/R60Q/E61D,4.02,1 of 3,0 of 9
V29I/E32C/E61L,2.72,1 of 3,1 of 9
V29R/Q96Y/Y97V,2.09,3 of 3,0 of 9
S28M/V29I/Y97N,4.83,1 of 3,1 of 9